# Values of other authors in patent publication US11174245B2, “Benzimidazole compounds and derivatives as EGFR inhibitors” (Boehringer Ingelheim International GmbH, priority 2018, dated 2021).
# System: EGFR M+ NSCLC patients
# Conditions: EGFR M+ NSCLC patients treated in 1st line; cited from earlier work
smiles,measurement,value
COc1cc2ncnc(Nc3ccc(F)c(Cl)c3)c2cc1OCCCN1CCOCC1 [gefitinib],objective response rate,60-85%
